## Binding of CDR-mutated scFvs to a peptide of the spike HR2 region

Target: peptide PDVDLGDISGINAS, taken from heptad repeat 2 (HR2) of SARS-CoV-2 spike.

Parent: Ab-14, a human scFv built as VH, a 15-residue (Gly4Ser)3 linker, VL. Only the CDRs of the heavy chain vary.
VH: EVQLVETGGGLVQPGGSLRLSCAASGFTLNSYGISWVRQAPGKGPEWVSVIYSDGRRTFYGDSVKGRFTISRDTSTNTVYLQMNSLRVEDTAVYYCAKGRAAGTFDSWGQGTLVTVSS
VL: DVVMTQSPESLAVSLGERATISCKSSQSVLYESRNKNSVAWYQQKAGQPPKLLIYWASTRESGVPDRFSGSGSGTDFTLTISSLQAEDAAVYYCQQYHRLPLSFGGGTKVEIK

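The starting antibody came from a phage panning campaign against this peptide. Variants in AAYL49 differ from the parent at up to three CDR positions; double and triple changes were sampled at random. In AlphaSeq, yeast of one mating type display the scFv and yeast of the other type display the target. After mating in shaken culture at 30 °C for 16 h, diploids were selected and their barcode pairs sequenced. The ratio of observed to expected reads was calibrated, replicate by replicate, on BCL2-family standards whose Kd was known from biolayer interferometry. The assay was run in three technical replicates.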

Variants are written as CDR1, CDR2 and CDR3 of the heavy chain (limits as in the source). Parent: GFTLNSYGIS, VIYSDGRRTFYGDSVK, GRAAGTFDS. Values are apparent Kd, the geometric mean of the replicates that gave a signal; lower means stronger binding. "no signal" means that the variant was in the library but no mating with the target was seen in any replicate; the authors take this as a sign of poor binding, and no number exists. In this assay the parent's reference entry averaged 4.4 nM; its copy inside this library read 13 µM (one replicate of three). Nonspecific signal, from three strains lacking the peptide, appeared in 15% of pairings of library AAYL49, centred on 11 µM (5% of these signals below 680 nM); values are not corrected for it.

CDR-H1,CDR-H2,CDR-H3,Kd (apparent),detected
GFTLNSNGIS,VIYFDGRRTFYGDSVK,GRAAGTFDK,no signal,0/3
GFTLNFYGIS,VIYSDGRRTFYGDSVK,GFAAGTFQS,no signal,0/3
GFTLNSYGES,EIYSDGRRTGYGDSVK,GRAAGTFDS,3.3 µM,1/3
GFTLNLYGIS,VIYSDGRFTFYWDSVK,GRAAGTFDS,85 µM,1/3
GFTLNSYGIS,VIYTDGRRTFYGDSVK,GRCAGTFDS,81 nM,3/3
GFMLNSYGIS,VIKSDGRRTFYGDSVK,GRAAGTFDS,no signal,0/3
GFTLNSYGIS,VIYGRGRRTNYGDSVK,GRAAGTFDS,71 µM,2/3
GFTLNSYGIS,VIYSDGRRTDYGDIVK,GRAAGTFDS,no signal,0/3
LFTLNSYGIS,VIYTDTRRTFYGDSVK,GRAAGTFDS,no signal,0/3
FFTCNSYGIS,VIYSDGRRTFQGDSVK,GRAAGTFDS,26 µM,2/3
GFTWYSYGIS,VIYSDGRRTFSGDSVK,GRAAGTFDS,no signal,0/3
GFELNSYEIS,VIYSDGRRTFYGDSVK,GRAAITFDS,580 µM,1/3
GWELYSYGIS,VIYSDGRRTFYGDSVK,GRAAGTFDS,3.2 µM,3/3
GFTLKSTGIS,VIYSDGRRTFYGDSQK,GRAAGTFDS,no signal,0/3
GFTLNSYGIS,AIYSDGRRTFYGDSVK,GRAASTFVS,no signal,0/3
GFTLNSYGIS,VIYSDGRRTTYGDQVK,GRAAKTFDS,70 nM,2/3
GFTLNSYGGS,VIYSDGRRRFYYDSVK,GRAAGTFDS,1.7 µM,1/3
GFTLYSYGIS,VITSDGCRTFYGDSVK,GRAAGTFDS,3.0 µM,1/3
GFTLNSYGIS,VICSDGRRTFYGDSVK,GWNAGTFDS,54 µM,2/3
GQTLNSYLIS,VIYSDGRRTFYFDSVK,GRAAGTFDS,30 µM,2/3
GDFLNSYGIS,VIYSDGRRTFYGDSVK,GRAAGTFDS,19 nM,3/3
GFTLNSYGIS,VIYSDGARTFYGDSVW,GRAGGTFDS,no signal,0/3
GFTHNSYGIS,NIYSDGRRTFYGDSVK,GRHAGTFDS,25 µM,1/3
GFTLNSYGIS,VIYSDGRYTFYGDSVK,GRAAGTEDS,no signal,0/3
GFTLNSYGIS,VIYSDGRRTDYGDSVK,GRAAGSFDC,21 µM,3/3
GFWLNSYGIS,VIYSDGMRTFYGDSVK,GRAAGVFDS,970 nM,3/3
GFTLNSYGIS,VIYSDGRRTFFGDVVK,GRYAGTFDS,no signal,0/3
GFTLNSTGIS,VIPSDGRRTFYGDSVF,GRAAGTFDS,81 µM,1/3
GFLLNSYGIS,VIYSDGRRTFYYYSVK,GRAAGTFDS,no signal,0/3
GFDLNSYGIS,VIYSDGRRTFYGDSVK,RRAAGTFDS,23 µM,1/3
GFGLNSYGIS,VIYSDGNRTFYGDSVK,GRAAGTFDD,250 nM,3/3
GFSLFSYGIS,VIYSDGRRTFYGDSVK,IRAAGTFDS,no signal,0/3
GFTLNSYGIS,QIYSNGRRTFYGDSVK,GRAAETFDS,no signal,0/3
GFTLNSYGIS,VIYSDGRRTFAGWSVK,GRSAGTFDS,8.7 µM,2/3
GFTLPSYGGS,VIYSDGRRTTYGDSVK,GRAAGTFDS,no signal,0/3
GFTLNTMGIS,VIYSDGRRTFYGDSVK,GRAAGRFDS,480 nM,3/3
LFTLNSYGIS,VNYSDGRRWFYGDSVK,GRAAGTFDS,7.0 µM,1/3
GFTLSSPGIS,VIYSDGRRTFYGDSVK,YRAAGTFDS,no signal,0/3
GFTLNSYGIS,VIYSDGYRTFYDDSVK,GREAGTFDS,4.1 nM,3/3
GFESNSYGIS,VIYSDGRRTFQGDSVK,GRAAGTFDS,24 µM,2/3
GFWLNSYGIS,VIYSEGRRTFYGDSVK,GRAAGSFDS,no signal,0/3
GFTLNAYGIS,VIYSDGRRTFYGDSVK,GRAGGTFDI,470 nM,3/3
GFTLNSYGIS,IIYSDERRTFYGDSVK,GRAAGTFDA,3.2 µM,1/3
GFWPNSYGIS,VIYSDGRRTFYGDSVK,GRAAGTFDL,no signal,0/3
GFTLNSYGIS,VIYGDGRRTFYGDSVK,GRVKGTFDS,no signal,0/3
GFTLNSYGIS,VIYVDGQRTFYGDSVK,GRAAGTFDS,570 nM,3/3
GFTLNSYGIS,VIDSDGRRTFYGDSDK,GRIAGTFDS,no signal,0/3
GFTLNSVGIS,VIRSDGRRTFYGDSVK,GMAAGTFDS,4.2 µM,2/3
GFTLNSYGIS,VIYSDGRRTFYGDSVD,GRAASTFDS,190 nM,3/3
GFTLNSYEIS,VIYSDGRRTGYGDSVK,GRDAGTFDS,87 µM,2/3
GFTLNSQGIS,VIYSLGRRTFYGDSVK,GRAAGTFWS,no signal,0/3
GFTLNSYGIS,VMYKDGRRTFYGDSVK,GRWAGTFDS,no signal,0/3
GFTLNSYWIS,VIYWDGRRTFYGDSVK,GTAAGTFDS,no signal,0/3
GFTLNSYGIS,VNYSDGRRTFYHDSVK,GRAFGTFDS,no signal,0/3
FFTLNSYGIS,VIYSDGRRTFYGDEVK,GRAAGTFDM,5.7 µM,1/3
GFCLNSYGIS,VIYSDGRRTFYGDSVK,NRMAGTFDS,no signal,0/3
GFTLNSDGIS,VINSDGRRTFYSDSVK,GRAAGTFDS,440 µM,1/3
GFTLNSHGIS,VIYSDGRRTFYGDSVK,GRAIGTEDS,5.1 µM,2/3
GFTLNSYGIS,VIYSDGRETFYGQSVK,KRAAGTFDS,no signal,0/3
GFTLNSYGIF,VIYSDPRRTFYGDSVK,GRAAGTFPS,68 µM,1/3
GFTLNSLGIS,VIYSDGRRCFYGDSVK,GRAANTFDS,62 µM,1/3
GFTLESYGIS,VIYSDGRRTFYVDSVK,KRAAGTFDS,8.3 µM,1/3
GFTLNSYGIS,VIYSDRRRTFYGDVVK,GRGAGTFDS,2.9 µM,1/3
GFTGNSYGIS,VIYSDGRRTFYGRSVK,GRAAATFDS,2.9 µM,1/3

From the list, the first 4 with no signal in any replicate:

CDR-H1,CDR-H2,CDR-H3,Kd (apparent),detected
GFTLNSNGIS,VIYFDGRRTFYGDSVK,GRAAGTFDK,no signal,0/3
GFTLNFYGIS,VIYSDGRRTFYGDSVK,GFAAGTFQS,no signal,0/3
GFMLNSYGIS,VIKSDGRRTFYGDSVK,GRAAGTFDS,no signal,0/3
GFTLNSYGIS,VIYSDGRRTDYGDIVK,GRAAGTFDS,no signal,0/3

Data: MIT Lincoln Laboratory AlphaSeq set, Engelhart et al. 2022, doi:10.1038/s41597-022-01779-4, as distributed in FLAb.